Measured affinities in a library of Ab-14 light chain variants

Data: MIT Lincoln Laboratory AlphaSeq set, Li et al. 2023, doi:10.1038/s41467-023-39022-2, as distributed in FLAb.

Target peptide (SARS-CoV-2 spike, HR2 region): PDVDLGDISGINAS

Ab-14 is the parent antibody, in scFv form: VH, then three GGGGS repeats, then VL. The heavy chain is unchanged in all variants.
VH: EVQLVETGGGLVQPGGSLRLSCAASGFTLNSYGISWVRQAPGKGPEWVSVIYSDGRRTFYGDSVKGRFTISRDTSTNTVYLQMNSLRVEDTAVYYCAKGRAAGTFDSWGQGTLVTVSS
VL: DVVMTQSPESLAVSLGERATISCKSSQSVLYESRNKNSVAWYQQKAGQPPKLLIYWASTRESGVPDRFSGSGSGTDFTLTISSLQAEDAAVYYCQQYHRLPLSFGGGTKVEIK

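Phage display of a naive human antibody library on the peptide gave the parent. The variants were designed computationally from a first round of random CDR variants and then made and measured. Their group label is 14L_En_Gibbs (En: ensemble of fine-tuned language models; Gibbs: Gibbs sampling). The assay is AlphaSeq: two haploid yeast populations carry antibody and antigen on their surface. After mating in shaken culture at 30 °C for 16 h, diploids were selected and their barcode pairs sequenced. Scores were corrected for input abundance and mapped to Kd with protein pairs of known affinity run in the same pool. There are six technical replicates.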

Variants are written as CDR1, CDR2 and CDR3 of the light chain (limits as in the source). Parent: KSSQSVLYESRNKNSVA, WASTRES, QQYHRLPLS. Scale: log10 of Kd in nM, estimated from mating counts; low values are strong binders. Replicates are averaged; those with no signal do not enter the mean. Where no diploid with the target was found in that replicate, the entry reads "n.d.": below detection, most likely a poor binder, though not proof of it. Three control strains display no target. For all light chain designs, 4% of the pairings with them gave a signal, with a median of 2.64 and one signal in twenty below 1.59, so weak values seen in few replicates may be background. For each scFv, signals with the empty controls are counted beside the result, with their mean in brackets.

| # | CDR-L1 | CDR-L2 | CDR-L3 | log10 Kd (nM) by replicate | log10 Kd (nM), mean | control signals |
|---|---|---|---|---|---|---|
| 1 | VLPDHELMKESQQHSIA | NEDKRME | QQYSRLPLM | -0.05 0.20 -0.01 0.13 -0.28 0.19 | 0.03 | 1/18 (1.96) |
| 2 | TLSGHQYNYSQKKNSIA | EDNNIRL | QQYHRLPLM | n.d. n.d. n.d. n.d. n.d. n.d. | n.d. | 0/18 |
| 3 | NIQDAEGGLSSQWNSVA | STEERSD | QSYHRLPLS | 1.03 1.30 1.79 0.86 0.98 0.87 | 1.14 | 0/18 |
| 4 | KFSYVKEMVNTDKESIA | DAHTVQM | QQYSRLPLA | 1.12 1.19 0.37 0.64 1.45 1.46 | 1.04 | 1/18 (1.54) |
| 5 | KFQIGMNQGSSMEHNIA | EGTYAEE | QQYARLPLQ | 0.46 0.44 0.06 0.83 0.68 1.04 | 0.59 | 3/18 (2.57) |
| 6 | HIQEVDNQVENQNGNVA | DANEYLA | QQYFQLPIS | 1.34 1.23 0.97 n.d. 1.34 1.87 | 1.35 | 1/18 (2.55) |
| 7 | HIQSNMFGFGGVANNVA | QTATKMV | QQYSKLPLM | 0.57 0.30 0.05 0.48 0.36 0.43 | 0.36 | 0/18 |
| 8 | ALTRQNLQNMDNLNSIA | EQNQTQE | QQYFRLPFA | 0.33 -0.04 0.76 0.43 0.56 1.24 | 0.55 | 0/18 |
| 9 | SLEPFEQQIMKDLNNIA | NTQVRAN | QQYMRLPFM | -0.04 -0.13 -0.26 -0.15 -0.08 0.00 | -0.11 | 0/18 |
| 10 | KMTEQLLNGEREPSNIA | AQNIGSD | QQYHHLPLI | n.d. 1.68 n.d. 2.58 n.d. n.d. | 2.13 | 0/18 |
| 11 | NIQDNEGGLSSQKNSVA | STEERSD | QSYHRLPLS | 2.47 2.38 1.81 1.60 1.85 2.39 | 2.08 | 1/18 (1.78) |
| 12 | KMRVSLLQGIYRQDSVA | STDIRVL | QQYHHLPLS | 2.38 0.68 0.96 0.91 1.82 1.02 | 1.29 | 1/18 (3.46) |
| 13 | KLGGEQQNSTYEKDNVA | DVNTTFE | QHYSRLPLT | n.d. n.d. n.d. n.d. 2.70 n.d. | 2.70 | 2/18 (1.89) |
| 14 | NVQLQVRSDNNNKYNIA | DEMLREY | QQYNRLPLS | n.d. 2.16 1.08 n.d. n.d. n.d. | 1.62 | 0/18 |
| 15 | ALYSTGYQVDSQMQAIA | DGHERIS | QQYFRLPLN | -0.07 0.36 0.09 0.01 0.15 0.54 | 0.18 | 0/18 |
| 16 | HMSESEHGDNVGVGNMA | NAQETVA | QQYMHLPLS | 0.27 0.17 0.14 0.01 0.14 0.12 | 0.14 | 2/18 (3.46) |
| 17 | MFALDQDSMGDAKNSIA | DRNTKAH | QQYSRLPLV | 1.26 0.85 1.27 1.05 1.15 1.09 | 1.11 | 2/18 (3.24) |
| 18 | TLHNGDNHDQVSKYSIA | DATLIGE | QQYARLPLE | 1.89 1.43 1.95 1.98 1.59 1.36 | 1.70 | 1/18 (2.01) |
| 19 | KLDYQADQYGVQWNNVA | HADIREP | QQYFKLPLN | 0.97 0.53 0.73 0.54 0.71 0.64 | 0.69 | 2/18 (2.86) |
| 20 | SLDMREPPYSALSGSVA | GSANRAI | QQYFRLPLS | 0.18 0.15 -0.31 -0.09 -0.13 -0.20 | -0.07 | 1/18 (2.90) |
| 21 | KIHMGWEMGSRTNDNIA | EANLRFS | QQYNRLPLF | 0.94 0.26 0.21 0.23 0.43 1.09 | 0.53 | 0/18 |
| 22 | KLQTLTNTANIGESSVA | DVNVHVD | QQYFRLPLS | 2.96 n.d. n.d. 2.82 3.03 n.d. | 2.94 | 1/18 (2.92) |
| 23 | KLSSLQFDSYMEKENVA | ESTQVFS | QQYHRLPLA | 1.16 0.97 1.53 1.17 1.65 1.92 | 1.40 | 0/18 |
| 24 | NLGFVDANDNRGMMNVA | DVNTVGE | QQYNRLPLA | 0.65 0.40 0.26 0.05 0.35 0.30 | 0.34 | 0/18 |
| 25 | RVTNELGKEMERKQSVA | ETEQRCM | QQYARLPLI | 0.70 0.45 0.32 0.50 0.53 0.50 | 0.50 | 1/18 (1.71) |
| 26 | KLQNFSQEHNGIWNSIA | DETMKHT | QHYDRLPLV | 1.12 1.43 1.47 2.84 1.00 1.06 | 1.49 | 0/18 |
| 27 | KIHCRELWYQGQWQNIA | EAAKLVE | QQYALLPLA | n.d. n.d. 3.74 1.92 2.33 1.86 | 2.46 | 1/18 (1.61) |
| 28 | MMTTGLLGENKNSSNIA | SQNIKTA | QQYQRLPFT | 1.33 1.42 0.93 1.21 1.05 1.05 | 1.16 | 0/18 |
| 29 | QLMEEQSMRTEAQRNIA | QGEQKVH | QQYFRLPLA | 0.99 0.42 0.82 0.83 1.14 0.88 | 0.85 | 0/18 |
| 30 | SMQLDQIEGNQQQNSIA | GESEADM | QHYERLPLT | n.d. n.d. n.d. n.d. n.d. n.d. | n.d. | 0/18 |
| 31 | NLVGRVPDNYQGRNAIA | DMHCRAG | QQYERLPLA | 0.64 0.61 0.64 0.37 0.84 0.59 | 0.62 | 0/18 |
| 32 | SMEWEEWNGQSVKHNIA | ADTKVLE | QQYFRLPFT | n.d. -0.64 n.d. n.d. n.d. n.d. | -0.64 | 0/18 |
| 33 | NFSMSDQYQMQEQGNIA | QTEQKAN | QQYFRLPLT | 0.26 -0.21 0.22 -0.10 0.26 0.11 | 0.09 | 1/18 (2.48) |
| 34 | EIRWQQYDGSEMEANIA | QEGTRHQ | QQYSRLPLS | n.d. n.d. n.d. n.d. n.d. n.d. | n.d. | 0/18 |
| 35 | SIQNLGMVPSVWKNSIA | DVTIVED | QQYYRLPLL | 0.93 0.60 1.01 1.01 0.82 0.51 | 0.81 | 1/18 (2.02) |
| 36 | RLHEYFYMPENANNSIA | EKDYRAR | QQYYRLPLA | 1.59 1.53 1.17 1.06 1.35 1.38 | 1.35 | 1/18 (2.70) |
| 37 | HINDMLLGSEKIAHSIA | NTGVTSR | QQYSRLPLI | 0.60 0.25 0.37 0.81 0.52 0.51 | 0.51 | 1/18 (2.03) |
| 38 | QLEQDQWPMGKGWHSIA | NATTLVA | QQYYYLPLS | 1.16 1.47 0.96 0.98 1.54 2.27 | 1.40 | 0/18 |
| 39 | HIQGYFTMPENANNNIA | EKHYRVR | QQYYRLPLA | n.d. 2.78 2.23 n.d. n.d. n.d. | 2.51 | 0/18 |
| 40 | HVHMEMAEEKEIRHNIA | DASMRYA | QQYVRLPLG | -0.19 -0.20 -0.12 -0.29 -0.34 -0.08 | -0.20 | 0/18 |
| 41 | IMSEGQEEDAARLNNIA | DHYTRAT | QQYARLPLH | n.d. 1.63 2.28 1.88 1.85 1.21 | 1.77 | 1/18 (2.18) |
| 42 | HVESAWLESNAKKKNVA | NGQGRVE | QQYGRLPLQ | 0.57 0.34 0.53 0.53 0.52 1.07 | 0.59 | 2/18 (2.95) |
| 43 | KLAMYLEMNARTNHAIA | EANLKPS | QQYNRLPFS | -0.01 -0.38 -0.08 0.09 0.08 -0.16 | -0.08 | 0/18 |

Top 3 of the variants detected in all replicates, tightest first:

CDR-L1	CDR-L2	CDR-L3	log10 Kd (nM) by replicate	log10 Kd (nM), mean	control signals
HVHMEMAEEKEIRHNIA	DASMRYA	QQYVRLPLG	-0.19 -0.20 -0.12 -0.29 -0.34 -0.08	-0.20	0/18
SLEPFEQQIMKDLNNIA	NTQVRAN	QQYMRLPFM	-0.04 -0.13 -0.26 -0.15 -0.08 0.00	-0.11	0/18
KLAMYLEMNARTNHAIA	EANLKPS	QQYNRLPFS	-0.01 -0.38 -0.08 0.09 0.08 -0.16	-0.08	0/18

The parent sequence was in this pool as ten entries: three were never detected, three once, and four in most replicates, with averages from 0.34 to 2.37. In the paper, a design with two or fewer of six values counts as a poor binder. The range of this assay differs from that of the first round, and the authors advise against merging the two.